The values below come from patent US20240158386A1, “BENZOXAZOLONE INHIBITORS OF INFLAMMASOMES” (ICAHN SCHOOL OF MEDICINE AT MOUNT SINAI, priority 2021, published 2024).

Sequences of proteins named here, by UniProt entry; tags and fusion partners are left off.
UniProt Q3UP24, whole entry: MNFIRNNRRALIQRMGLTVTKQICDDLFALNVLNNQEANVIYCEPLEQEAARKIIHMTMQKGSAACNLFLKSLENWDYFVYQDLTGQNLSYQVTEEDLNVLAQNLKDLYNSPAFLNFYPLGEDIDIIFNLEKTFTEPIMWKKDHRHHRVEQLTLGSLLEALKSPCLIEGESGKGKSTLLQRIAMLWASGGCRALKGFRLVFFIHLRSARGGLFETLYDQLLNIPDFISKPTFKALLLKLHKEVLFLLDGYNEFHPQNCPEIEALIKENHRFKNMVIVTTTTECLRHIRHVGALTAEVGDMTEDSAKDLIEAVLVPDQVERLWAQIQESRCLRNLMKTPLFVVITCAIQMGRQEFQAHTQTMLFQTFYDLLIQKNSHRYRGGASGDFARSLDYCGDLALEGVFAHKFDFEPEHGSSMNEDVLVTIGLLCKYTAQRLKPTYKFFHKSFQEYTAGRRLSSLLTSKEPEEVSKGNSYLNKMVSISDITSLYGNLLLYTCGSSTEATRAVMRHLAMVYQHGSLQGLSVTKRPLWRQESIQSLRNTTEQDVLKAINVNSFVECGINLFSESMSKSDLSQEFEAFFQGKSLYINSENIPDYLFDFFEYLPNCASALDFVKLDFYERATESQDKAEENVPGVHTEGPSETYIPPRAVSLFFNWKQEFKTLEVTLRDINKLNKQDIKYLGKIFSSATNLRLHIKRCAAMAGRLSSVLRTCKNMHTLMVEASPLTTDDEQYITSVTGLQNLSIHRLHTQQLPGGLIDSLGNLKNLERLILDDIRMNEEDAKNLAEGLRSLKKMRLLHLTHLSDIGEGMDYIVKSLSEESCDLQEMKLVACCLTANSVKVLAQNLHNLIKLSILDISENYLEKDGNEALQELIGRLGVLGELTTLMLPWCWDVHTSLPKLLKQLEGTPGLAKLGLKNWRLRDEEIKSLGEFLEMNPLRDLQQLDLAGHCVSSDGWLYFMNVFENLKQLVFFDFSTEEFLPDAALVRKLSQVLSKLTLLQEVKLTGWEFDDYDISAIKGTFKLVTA
UniProt Q8R4B8, whole entry: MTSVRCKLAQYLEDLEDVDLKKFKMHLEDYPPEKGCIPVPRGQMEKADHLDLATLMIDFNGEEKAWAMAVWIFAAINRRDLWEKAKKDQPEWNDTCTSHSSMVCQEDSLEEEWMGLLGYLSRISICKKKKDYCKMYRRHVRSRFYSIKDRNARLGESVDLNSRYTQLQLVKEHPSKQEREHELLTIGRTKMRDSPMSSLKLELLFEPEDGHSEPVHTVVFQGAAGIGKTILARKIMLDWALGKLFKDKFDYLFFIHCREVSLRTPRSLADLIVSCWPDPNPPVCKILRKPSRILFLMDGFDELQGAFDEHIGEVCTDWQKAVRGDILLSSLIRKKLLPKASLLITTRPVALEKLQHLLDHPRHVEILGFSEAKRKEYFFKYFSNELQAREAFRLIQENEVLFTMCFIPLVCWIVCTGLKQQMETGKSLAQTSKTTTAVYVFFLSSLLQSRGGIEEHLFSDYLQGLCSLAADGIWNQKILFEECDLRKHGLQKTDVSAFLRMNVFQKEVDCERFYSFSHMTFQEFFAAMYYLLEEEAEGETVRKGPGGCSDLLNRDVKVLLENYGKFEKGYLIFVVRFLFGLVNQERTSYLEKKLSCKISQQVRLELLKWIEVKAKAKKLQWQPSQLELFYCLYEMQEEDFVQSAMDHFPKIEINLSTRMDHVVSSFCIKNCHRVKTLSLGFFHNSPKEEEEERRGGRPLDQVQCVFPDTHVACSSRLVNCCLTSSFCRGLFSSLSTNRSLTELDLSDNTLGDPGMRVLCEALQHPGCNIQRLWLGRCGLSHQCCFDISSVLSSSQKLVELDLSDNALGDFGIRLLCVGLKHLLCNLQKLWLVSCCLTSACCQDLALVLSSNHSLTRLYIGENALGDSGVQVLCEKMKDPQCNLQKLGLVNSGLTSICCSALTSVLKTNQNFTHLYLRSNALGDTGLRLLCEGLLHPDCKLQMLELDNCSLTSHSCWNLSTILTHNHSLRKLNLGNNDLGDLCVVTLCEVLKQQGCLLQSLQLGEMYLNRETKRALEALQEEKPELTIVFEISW

Several values for one entry are separate records, joined by “and”; a condition that tells them apart may be missing. Identical values can stand only once.

One series relates to microglia cultures. The series is described as follows: Cell viability assay (CytoTox 96 cytotoxicity). As to conditions: 100 μM. As to the method:
(§1) NLRP3 inflammasome activation assay. Primary microglia cultures were incubated with the compounds that inhibited IL-1β production in THP1 macrophages. Cells pretreated with 100 μM of the compounds—or with the same DMSO volume, in the case of control samples—were primed with 400 ng/ml LPS for 3 hours, and activated with 4.5 mM ATP for 45 minutes or […] nigericin for 1 hour. Dose-response curves were conducted by incubating microglia cultures with different concentrations of the selected compounds, ranging from 0.001 to 100 μM, 1 hour before NLRP3 activation with LPS and ATP. Supernatants were collected for IL-1β and toxicity assessments.
Cell viability assays. The cytotoxic effect of the compounds identified by in-vitro screening was assayed with the Cyto Tox 96® NonRadioactive Cytotoxicity Assay (Promega), following the recommendations of the manufacturer.

Series [1] relates to primary microglial cultures. The experiment in a line: Pyroptosis measurement (LDH release) in primary microglial cultures. As to conditions: primary microglia, LPS and ATP. Here is the method: Pyroptosis measurement. The ability of C75, C77, C78, and C97 to inhibit pyroptosis was determined by measuring the LDH released by pyroptotic cells into the culture medium. 350 ng/ml LPS was added to primary microglial cultures pre-treated with different concentrations of the inhibitors. After 3 hours of treatment, pyroptosis was induced through the addition of 4.5 mM ATP, for 45 min. Cell supernatants were collected for LDH assessment, using the Cyto Tox 96® NonRadioactive Cytotoxicity Assay (Promega), following manufacturer the recommendations.

The target of a further series is NLRC4 inflammasome (Mus musculus, UniProt Q3UP24). The series is described as follows: NLRC4 inflammasome activation assay: IL-1β release, microglia from NLRP3 KO mice, LPS and flagellin. As to conditions: 10 μM. As to the method:
AIM2, NLRP7, and NLRC4 inflammasomes activation assays. […] AIM2 inflammasome activation was induced through the addition of 100 ng/ml LPS for 2 hours, followed by transfection of 1 μg poly(dA:dT) using Lipofectamine 2000 during 2 hours, following the manufacturer recommendations. NLRC4 was activated by treatment with 150 ng/ml LPS for 2 hours, before transfection of 1 μg flagellin during 2 hours, using lipofectamine 2000 as transfection reagent. Negative and positive controls were pre-treated with the same DMSO percentage as cells treated with the inhibitors. Negative controls were kept untreated after DMSO addition, while LPS-poly(dA:dT) or LPS-flagellin was added to positive controls for AIM2, and NLRC4 activation, respectively. For activation of the NLRP7 inflammasome different conditions were assessed: treatment of WT microglia cultures with 400 ng/ml fibroblast-stimulating lipopeptide-1 (fsl-1) for 7 hours, priming with 150 ng/ml LPS for 1 hour and treatment with 400 ng/ml fsl-1 for 7 hours, and priming with 150 ng/ml LPS and transfection of 400 ng/ml fsl-1 with lipofectamine. MCC950 was used as a negative control for NLRC4 and AIM-2 inhibition. […]
Cytokine quantification. […] IL-1β precursor and cleaved IL-1β in the FC of mice treated with vehicles, LPS, or C77-LPS was assessed by western blot. […]

For another series, the target named is NLRP3 inflammasome (Mus musculus, UniProt Q8R4B8). The experiment in a line: NLRP3 inflammasome activation assay: IL-1β release by primary microglia after LPS and ATP. As to conditions: for IC50: IL-1β release, nonlinear fit of dose-response; for IC50 / inhibition of IL-1β release upon NLRP3 activation: microglia, LPS and ATP; for inhibition of IL-1β release upon NLRP3 activation: 100 μM compound. As to the method: Murine primary microglia. Mixed cortical cultures were prepared as previously described (Bronstein, R. et al. J. Vis. Exp. JoVE 50647 (2013) doi:10.3791/50647). Briefly, cortices from 2-3 days old, WT, or NLRP3 KO pups were isolated, digested, and seeded at a density of 8 cortices per 10 ml petri dish. Every three days, the medium was replaced by fresh culture medium (DMEM, 10% FBS, 1% penicillin-streptomycin). After three weeks, mixed glial cultures had reached confluence, and microglia cells were isolated by mild trypsinization as previously described (Saura, J. et al. Glia 44, 183-189 (2003)). In brief, cells were washed with culture medium without FBS and treated with a mixture of trypsin 0.25% (without EDTA) and DMEM-F12 medium in a 1:3 proportion. After an incubation period of approximately 40 min, an intact layer of mixed glial cells detached, leaving microglia attached firmly to the bottom of the Petri-dish. Pure microglia were then isolated by 15 min incubation with trypsin (0.05%)-EDTA at 37° C., followed by gentle shaking. Cells were counted and seeded at the desired density, typically 7.5·10^4 cells/well in 24 well-plates.
as §1
Cytokine quantification. IL-1β in cell supernatants and brain tissue samples—after the different treatment groups—was quantified using the Mouse IL-1 beta/IL-1F2 DuoSet ELISA kit (R&D systems), IL-6 in cell culture supernatant was measured through the Mouse IL-6 ELISA kit (ThermoFisher), TNF-α in cell culture supernatants was determined using the Mouse TNF-alpha DuoSet ELISA (R*D systems), and IL-18 in brain tissue was measured through the IL-18 Mouse ELISA Kit (Invitrogen) following the manufacturers' recommended protocol. IL-1β precursor and cleaved IL-1β in the FC of mice treated with vehicles, LPS, or C77-LPS was assessed by western blot. All samples were run in technical duplicates.

The test system of series [2] is ASC specks following NLRP3 activation. The experiment in a line: ASC speck formation / ASC oligomerization in m-Cerulean ASC labeled macrophages. As to conditions: 10 μM pretreatment, LPS and ATP, compared with DMSO-treated cells. As to the method: m-Cerulean ASC labeled macrophages. NLRP3 Knock Out immortalized murine macrophages, stably expressing m-Cerulean-ASC, and NLRP3-Flag were a kind donation of Prof. Eicke Latz, (Institute of Innate Immunity, University of Bonn, Germany). Murine macrophages were maintained in high glucose DMEM medium supplemented with 10% FBS, 1% sodium pyruvate, and passaged every 2-3 days, before reaching confluence.
For ASC speck formation evaluation, murine macrophages were seeded in 96 well SCREENSTAR black microplates with clear base, 24 hours before stimulation. […] Cells were then fixed and counterstained in a single step, as previously described (Stutz, A. et al. ASC Speck Formation as a Readout for Inflammasome Activation. in The Inflammasome (eds. De Nardo, C. M. & Latz, E.) vol. 1040 91-101 (Humana Press, 2013).). […]
ASC oligomerization determination. […] ASC specks in cells pretreated with C75, C77, C78, and C97, before NLRP3 activation (as above indicated), were visualized with a widefield Leica DMi8 fluorescence microscope, using the 20× objective. […] For image analysis and speck quantification, ImageJ was used https://imagej.nih.gov/ij/index.html. Speck and nuclei quantification was performed as previously described in Stutz et al. When required (overlapping nuclei), the watershed separation algorithm was used to separate the particles. […]

For the compound `O=c1[nH]nc(-c2ccc(OCc3ccc(F)cc3)cc2)o1`, the cytotoxicity result with microglia cultures is given as “exerted some toxicity”. Moreover, the concentrations inhibiting pyroptosis result in series [1] is on record as “higher C97 concentrations were needed”. Besides, the “inhibition of NLRC4-mediated IL-1β production” value against NLRC4 inflammasome was “specific for NLRP3”. For the same compound, the IC50 against NLRP3 inflammasome is 10 µM and 11.3 µM. Further, the “% Residual activity (percentage of IL-1β, referred to control)” value on NLRP3 inflammasome (microglia cultures pretreated with 100 μM compound before NLRP3 activation with LPS and ATP) was 0%. Also, in series [2], the “rate of ASC speck positive cells” value is “significantly reduced”.

Regarding `Cc1cnn(CC2CCN(C(=O)Cn3c(=O)oc4ccccc43)C2)c1` (stereo not drawn), at NLRP3 inflammasome, the “inhibition of IL-1β release upon NLRP3 activation” value is on record as “inhibited NLRP3 with statistical significance” and the IC50 amounted to 45.4 µM.

Take `O=C(Cn1c(=O)oc2ccccc21)NCCn1ccc(C(F)(F)F)n1`: on NLRP3 inflammasome, the “inhibition of IL-1β release upon NLRP3 activation” value was “inhibited NLRP3 with statistical significance” and the IC50 came out at 35.7 µM.

As to `O=C(Cn1c(=O)oc2ccccc21)NCCn1ccc(-c2ccccc2)n1`, at NLRP3 inflammasome, the “inhibition of IL-1β release upon NLRP3 activation” value is “inhibited NLRP3 with statistical significance” and the IC50 came to 87.2 µM.
